This note sets out measurements from US20180094056A1 (Genentech, published 2018).

Where a chain is given by its changes, count along the chain named.

B1: Fab16 (Fab, V domains shown)
VH: [about 120 residues not listed]
VL: DIQMTQSPSSLSASVGDRVTITCRASQDVTTAVAWYQQKPGKAPKLLIYSASFLYSGVPSRFSGSRSGTDFTLTISSLQPEDFATYYCQQHYTTPPTFGQGTKVEIK
B2: Fab8 (Fab, V domains shown)
VH: [about 120 residues not listed]
VL: B1 VL with T30D
B3: Fab18 (Fab, V domains shown)
VH: [about 120 residues not listed]
VL: B1 VL with T30E

The target in this experiment is T1, recombinant human Her2 ECD (Human Her2/ErbB2 protein, catalog #10004-HCCH, Sino Biological Inc.) (human, UniProt P04626, in part).
T1 construct: extracellular domain; also called HER2 antigen; HER2 target
The experiment is described as follows: SPR (Biacore T200), HER2 ECD amine-coupled on CM5 chip, Fab injected at 1.56-50 nM, 1:1 Langmuir fit. For orientation: Surface plasmon resonance follows binding to a sensor surface in real time, without labels.
With B1, the Kd is 32 nM. In the case of B2, the equilibrium dissociation constant (Kd) was found to be 2 nM.

Regarding B3, the Kd was 87 nM.

In general, Kd refers to a measure of binding affinity in units of concentration.
